In patent US20220160820A1, “MODULATORS OF COMPLEMENT ACTIVITY” (Ra Pharmaceuticals, Inc., priority 2019, published 2022):
Read-outs that look alike come from different tables or passages of the source.

How the values were obtained:
[1] = not told
[2] = inferred from published mAb studies, cited from earlier work

eculizumab
fraction introduced to upper reservoir diffused to lower reservoir [1]: less than 20% | Eculizumab biodistribution % ([2]; Bone): 7.27% | Eculizumab biodistribution % ([2]; Brain): 0.35% | Eculizumab biodistribution % ([2]; Fat): 4.78% | Eculizumab biodistribution % ([2]; Heart): 10.2% | Eculizumab biodistribution % ([2]; Large Intestine): 5.03% | Eculizumab biodistribution % ([2]; Liver): 12.1% | Eculizumab biodistribution % ([2]; Lung): 14.9% | Eculizumab biodistribution % ([2]; Lymph nodes): 8.46% | Eculizumab biodistribution % ([2]; Muscle): 3.97% | Eculizumab biodistribution % ([2]; Pancreas): 6.4% | Eculizumab biodistribution % ([2]; Small Intestine): 5.22% | Eculizumab biodistribution % ([2]; Spleen): 12.8% | Eculizumab biodistribution % ([2]; Stomach): 4.98% | Eculizumab biodistribution % ([2]; Testes): 5.88% | Eculizumab biodistribution % ([2]; Thymus): 6.62%
